Laboratory results reported in patent US7094873 (University of Texas, dated 2006).

How the values were obtained:
Bovine Hsc70 (Stressgen) = biological target: T1, Bovine Hsc70 (Stressgen) (bovine); experiment: GST pulldown on glutathione-Sepharose beads, immunoblot
T1 construct: also called purified Hsc70

Human Hsp70 (Stressgen) = Human Hsp70 (Stressgen) (human); experiment: as above
[1] = biological target: T2, 35S-labeled, in vitro translated hCHIP (43-kD S-tagged fusion from vector pCITE-4a) (human, UniProt Q9UNE7 1-303, 35S-methionine labeled); experiment: GST on beads with 35S-labeled hCHIP, autoradiography
T2 construct: Made in rabbit reticulocyte lysate; not shown: S-tag and vector-encoded residues of pCITE-4a
T2 sequence: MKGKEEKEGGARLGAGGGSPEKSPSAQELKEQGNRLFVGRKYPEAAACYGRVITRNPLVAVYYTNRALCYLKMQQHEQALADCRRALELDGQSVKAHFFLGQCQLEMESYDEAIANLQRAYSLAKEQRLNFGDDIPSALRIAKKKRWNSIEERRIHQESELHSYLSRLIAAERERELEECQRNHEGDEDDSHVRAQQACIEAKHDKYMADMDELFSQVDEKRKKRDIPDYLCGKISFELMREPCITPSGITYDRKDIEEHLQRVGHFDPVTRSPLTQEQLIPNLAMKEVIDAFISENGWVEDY

Measured: binding result

B1: GST alone (plasmid pGEX-2T) (other, UniProt P08515 1-218, looked up)
chain: MSPILGYWKIKGLVQPTRLLLEYLEEKYEEHLYERDEGDKWRNKKFELGLEFPNLPYYIDGDVKLTQSMAIIRYIADKHNMLGGCPKERAEISMLEGAVLDIRYGVSRIAYSKDFETLKVDFLSKLPEMLKMFEDRLCHKTYLNGDHVTHPDFMLYDALDVVLYMDPMCLDAFPKLVCFKKRIEAIPQIDKYLKSSKYIAWPLQGWQATFGGGDHPPK
notes: Control protein; also called GST itself
no binding: all assays above
